# Measured values taken from PubChem BioAssay AID1011 (National Center for Advancing Translational Sciences (NCATS), 2008).
# The entries are a selection whose mix differs from that of the whole data set. The source made the active and inactive calls. Calls follow the shape of the full dose curve.
# Assay: Confirmation Concentration-Response Assay for Inhibitors of the Schistosoma mansoni Redox Cascade
# Conditions: S. mansoni TGR/Prx2 coupled, NADPH fluorescence kinetics
# Excerpt: NIH Molecular Libraries Screening Centers Network [MLSCN] NIH Chemical Genomics Center [NCGC] MLSCN Grant: MH076449-01 Assay Provider: Prof David Williams, Illinois State University This is a confirmation assay for PubChem BioAssay AID 448. Schistosoma mansoni, a causative agent of schistosomiasis, resides in the bloodstream of their host up to 30 years without being eliminated by the host immune attack. One proposed survival mechanism is the production of an antioxidant "firewall" that neutralizes the oxidative assault of the host's immune attack. Schistosoma mansoni peroxiredoxins (Prx) are important parasite antioxidant proteins that play a crucial role in redox balance mechanisms. […] First, the proteins are essential for the parasite survival. […] Third, the protein(s) is amenable for study at the molecular level and can be produced in bacteria in large quantities, in soluble and active form. Inhibition of Prx activity was screened in a coupled-enzyme format with reducing equivalents being transferred from NADPH to […] via thioredoxin/glutathione reductase (TGR)-catalyzed reaction, then from thioredoxin to hydrogen peroxide via Prx-catalyzed electron transfer. A decrease in the fluorescence intensity of NADPH was used to measure the enzyme activity. Purified S. mansoni TGR and Prx were provided by Professor David L. Williams, Illinois State University.
# Buffer: 100 mM phosphate buffer, pH 7.4, 10 mM EDTA, 0.01% Tween-20. […] 100 uM NADPH/25 nM TGR/700 uM GSH/50 nM Prx2 mixture in columns 1, 2, 5-48. Titration of control potassium antimonyl tartrate (PAT, from 1 mM, then 1:5) pin-transferred to lower half of column 2. Column 1 and upper half of column 2 are neutral (100% activity). Assay Steps: Three uL of reagents were dispensed to 1536-well Greiner black plates. Compounds and controls (20 nL) were transferred via Kalypsys PinTool. The plates were incubated for 15 min at room temperature, and then a 1 uL aliquot of 400 uM NADPH/700 uM GSH was added, immediately followed by a 1uL aliquot of 2.5 mM H2O2 (to start the reaction). The plate was transferred to ViewLux (Perkin-Elmer) High-throughput CCD imager where kinetic measurements (every 30 sec, for a total of 8 min) of NADPH fluorescence were taken using 365 nm excitation/450 nm emission filter set. During dispense, enzyme-containing reagent bottles were kept submerged into 4 deg C water bath to minimize degradation.
Compound,Potency,outcome
CCc1nc2c(n1)c1c(non1O)c1c2no[n+]1[O-],active: 13100 nM,–
O=P(Nc1nccs1)(c1ccccc1)c1nc2ccccc2s1 (centres undefined),active: 20 nM,–
O=P(Nc1nccs1)(c1ccccc1)c1ccccc1,–,inactive
O=P(Nc1ccc(Cl)cn1)(c1ccccc1)c1nc2ccccc2s1 (centres undefined),active: 250 nM,–
